Source: ChEMBL document CHEMBL2417539, “1-substituted (Dibenzo[b,d]thiophen-4-yl)-2-morpholino-4H-chromen-4-ones endowed with dual DNA-PK/PI3-K inhibitory activity” (J Med Chem, 2013)

Sequences of proteins named here, by UniProt entry; tags and fusion partners are left off. A change or cut given only in a name is not applied to a line headed by its entry.
UniProt P42338: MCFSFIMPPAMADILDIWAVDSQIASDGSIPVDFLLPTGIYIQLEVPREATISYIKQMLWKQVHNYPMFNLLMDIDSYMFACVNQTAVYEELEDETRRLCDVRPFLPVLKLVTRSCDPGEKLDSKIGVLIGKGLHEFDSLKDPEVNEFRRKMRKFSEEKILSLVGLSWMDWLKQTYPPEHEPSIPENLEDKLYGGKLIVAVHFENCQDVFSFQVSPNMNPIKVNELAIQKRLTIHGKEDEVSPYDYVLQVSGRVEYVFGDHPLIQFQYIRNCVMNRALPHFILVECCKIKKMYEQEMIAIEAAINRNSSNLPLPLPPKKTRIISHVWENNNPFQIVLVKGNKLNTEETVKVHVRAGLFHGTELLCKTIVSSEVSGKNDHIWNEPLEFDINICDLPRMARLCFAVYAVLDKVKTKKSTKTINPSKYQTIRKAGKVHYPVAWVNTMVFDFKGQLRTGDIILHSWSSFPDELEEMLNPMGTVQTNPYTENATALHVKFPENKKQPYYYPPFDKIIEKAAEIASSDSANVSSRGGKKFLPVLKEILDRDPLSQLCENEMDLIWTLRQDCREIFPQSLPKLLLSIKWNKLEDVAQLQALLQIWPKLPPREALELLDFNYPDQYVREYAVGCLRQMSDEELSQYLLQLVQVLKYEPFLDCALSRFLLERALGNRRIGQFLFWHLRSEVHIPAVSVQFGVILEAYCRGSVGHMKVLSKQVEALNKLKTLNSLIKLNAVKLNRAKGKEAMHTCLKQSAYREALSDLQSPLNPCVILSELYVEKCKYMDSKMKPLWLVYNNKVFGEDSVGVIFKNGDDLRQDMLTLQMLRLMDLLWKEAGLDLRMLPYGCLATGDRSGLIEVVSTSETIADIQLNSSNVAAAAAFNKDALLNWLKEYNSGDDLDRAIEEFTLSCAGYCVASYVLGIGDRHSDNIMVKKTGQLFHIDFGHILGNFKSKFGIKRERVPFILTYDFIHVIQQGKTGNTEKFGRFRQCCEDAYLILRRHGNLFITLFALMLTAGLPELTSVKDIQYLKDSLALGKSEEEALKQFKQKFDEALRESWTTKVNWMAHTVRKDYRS

Molecular target: Phosphatidylinositol 4,5-bisphosphate 3-kinase catalytic subunit beta isoform (Homo sapiens, UniProt P42338)
Test: Inhibition of PI-3K beta (unknown origin)

O=c1cc(N2CCOCC2)oc2c(-c3ccccc3)cccc12 [LY-294002]
IC50: 0.27 µM
